Laboratory results taken from publication PMC4096218 (Journal of Medicinal Chemistry, 2014).

Test system: Saccharomyces cerevisiae (ATCC 208352)
Type: cell-based

| SMILES | activity against S. cerevisiae |
| --- | --- |
| Cc1cc(Cl)ccc1-c1ccc(/C=C2\SC(=S)N(CC(=O)O)C2=O)o1 [Compound 1] | no activity |
| O=C(O)CCN1C(=O)/C(=C/c2ccc(-c3ccc(Cl)cc3Cl)o2)SC1=S [Compound 4] | no activity |
